In PubChem BioAssay AID927 (National Center for Advancing Translational Sciences (NCATS), 2007):
The entries are a selection whose mix differs from that of the whole data set. The source made the active and inactive calls. Calls follow the shape of the dose curve; as a rule, active = well fitted inhibition curve with a large enough effect; inconclusive = small, poorly fitted or top-dose-only effect; inactive = no such curve, though single readings can be large or run the other way.

Amino acid sequences for entries named in this document (tags omitted).
UniProt O75604, whole entry: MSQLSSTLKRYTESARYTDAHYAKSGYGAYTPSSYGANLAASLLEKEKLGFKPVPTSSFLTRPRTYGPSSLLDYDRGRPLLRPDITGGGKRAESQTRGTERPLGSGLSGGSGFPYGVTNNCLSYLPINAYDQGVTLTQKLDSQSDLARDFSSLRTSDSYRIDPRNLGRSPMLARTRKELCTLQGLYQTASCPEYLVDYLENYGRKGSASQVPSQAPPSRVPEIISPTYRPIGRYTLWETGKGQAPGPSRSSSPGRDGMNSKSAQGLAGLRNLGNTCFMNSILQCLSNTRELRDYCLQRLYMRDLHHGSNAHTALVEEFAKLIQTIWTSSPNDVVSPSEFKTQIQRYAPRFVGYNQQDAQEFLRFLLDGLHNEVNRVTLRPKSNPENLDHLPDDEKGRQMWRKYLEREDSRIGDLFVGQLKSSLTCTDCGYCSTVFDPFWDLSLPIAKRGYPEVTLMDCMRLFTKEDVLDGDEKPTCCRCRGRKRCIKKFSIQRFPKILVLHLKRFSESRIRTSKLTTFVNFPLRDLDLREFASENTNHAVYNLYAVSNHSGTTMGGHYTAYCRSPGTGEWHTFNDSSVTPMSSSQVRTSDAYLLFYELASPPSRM

The molecules below were run against Ubiquitin carboxyl-terminal hydrolase 2 (Homo sapiens) (UniProt O75604) (assay: qHTS Assay for Inhibitors of Ubiquitin-specific Protease USP2a). Settings: USP2a enzymatic assay; at 38.3 µM (top of the series) unless noted.
Source text: NIH Molecular Libraries Screening Centers Network [MLSCN]
NIH Chemical Genomics Center [NCGC]
PI Name: Nicholson, Ben. Progenra Inc, Malvern, PA
Homeostasis of cellular proteins is maintained through a combination of synthesis and degradation. The pathway that accounts for the majority of protein degradation is the ubiquitin-proteasomal pathway. Ubiquitin (Ub) is highly conserved in all cells and the generation of a multi-Ub chain typically targets proteins for degradation by the proteasome. However, ubiquitination is highly reversible and dynamic. Deubiquitination, the reverse process, is catalyzed through the action of enzymes referred to as isopeptidases or deubiquitinating enzymes (DUBs). This group of enzymes is collectively responsible for maintaining adequate pools of free ubiquitin and regulating the ubiquitination status of cellular proteins. The class of DUBs referred to as the ubiquitin-specific proteases (USP) family functions endoproteolytically to cleave Ub chains from a wide range of protein substrates. USP2a deubiquitinates fatty acid synthase (FASN) which has recently been identified as an emerging oncology target. To identify inhibitors of USP2a a cell-free assay was employed.
The reporter enzyme chosen is phospholipase A2 (PLA2), which has an absolute requirement for a free amino terminus. Thus, fusion of a UBL to the N-terminus of PLA2 inactivates PLA2. When the UBL-PLA2 reporter enzyme is cleaved by USP2, the activated reporter can subsequently act on its substrate, which is the commercially available NBD C6-HPC (Invitrogen). Thus, this coupled assay gives a fluorescent read-out, which is generated through the cleavage of the PLA2 reporter enzyme. The assay, developed by Progenra, Inc. uses Ub-PLA2 and USP2a at near equal and low (nM) amounts and has been licensed for sale by LifeSensors, Inc. as the Ub-IsoPro1 kit.
NCGC Assay Protocol Summary:
The assay buffer, prepared fresh at the day of the assay, contains 20mM Tris-HCl pH 8.0, 2mM CaCl2, 2mM beta-Mercaptoethanol, 0.1% DMSO. 3ul of 40nM (20nM final) USP2 core, which is stored on ice, is dispensed into a medium-binding black solid Kalypsys 1,536 well plate using the Kalypsys dispenser. The assay plate is then pinned with 23nL compound with the Kalypsys pintool in columns 5-48. The controls are pinned as follows: column 1&2 two-fold dilutions of 2M NEM in duplicate; column 3 DMSO; column 4 2M NEM (final concentration 38.2mM). The assay plate is incubated at RT for 30min. Subsequently, 3uL of 40nM (20nM final) Ub-PLA2 and 40uM (20uM final) NBD C6-HPC (stored on ice and protected from light) were dispensed into the plate using the Kalypsys dispenser. Plates were read immediately (0 Hour) on an Envision (Perkin Elmer) plate reader using the following wavelengths Ex 460nm /Em 535nm. Then, the assay plates were incubated for 2.5 hours and read again on the Envision using the same settings
Data were normalized to the to AC100 inhibition (NEM). Concentration-response curves were fitted to the normalized data and the concentration-response curves were then classified based on curve quality (r2), response magnitude and degree of measured activity. The time zero reading was used to flag fluorescence artifacts.
Keywords: ubiquitination, deubiquitination, proteases, profluorescent, MLSMR, MLSCN, NIH Roadmap, qHTS, NCGC
Also: nearly all actives have a fitted effect of over 60% in size.

| Compound | activity change, negative = inhibition |
| --- | --- |
| COc1ccccc1OP(C)(=O)Nc1ccc(C)cc1 (configuration not stated) | inactive: 6.21% |
| CP(=S)(Nn1cnnc1)Oc1ccccc1 (configuration not stated) | inactive: 2.36% |
| CP(=O)(NC(=O)Nc1ccccc1)Oc1ccccc1 (configuration not stated) | inactive: 4.26% |
| CCOP(C)(=S)SCC(=O)NC(C)C(=O)O (configuration not stated) | inactive: -2.17% |
| Cc1ccc(C)c(NP(C)(=O)Oc2ccccc2)c1 (configuration not stated) | inactive: -1.75% |
| CP(=O)(Nc1ccccc1F)Oc1ccccc1 (configuration not stated) | inactive: -2.73% |
| CN(C)CCOC(=O)C(O)(c1ccccc1)C1CCCCC1 (configuration not stated) | inactive: 22.2% |
| CCOP(C)(=S)SCC(=O)NC(C)(CC)C(=O)O (configuration not stated) | inactive: 5.84% |
| CP(=O)(Nc1ccc2c(c1)OCCO2)Oc1ccccc1 (configuration not stated) | inactive: 4.78% |
| Cc1ccccc1NP(C)(=O)Nc1ccccc1C | inactive: 5.3% |
| CCN(CCCl)Cc1ccccc1C | inactive: -5.66% |
| N#[O+].[C-]#N.[C-]#N.[C-]#N.[C-]#N.[C-]#N.[Fe+2].[Na+].[Na+] | inactive: 2.57% |
| OCCSCCO | inactive: -10.1% |
| COc1ccccc1OP(C)(=O)Nc1c(C)n(C)n(-c2ccccc2)c1=O (configuration not stated) | inactive: 7.92% |
| CP(=O)(Oc1ccccc1)N1CCOC1=O (configuration not stated) | inactive: 1.46% |
| C/C1=C2N=C(/C=C3N=C(/C(C)=C4\[N-][C@@](C)([C@H]5N=C1[C@@](C)(CCC(=O)NC[C@H](C)OP(=O)([O-])O[C@@H]1[C@H](O)[C@H](n6cnc7cc(C)c(C)cc76)O[C@@H]1CO)[C@@H]5CC(N)=O)[C@](C)(CC(N)=O)[C@H]4CCC(N)=O)[C@@](C)(CC(N)=O)[C@@H]\3CCC(N)=O)C(C)(C)[C@@H]/2CCC(N)=O.[C-]#N.[Co+3] | inactive: -28.1% [at 17.1 µM] |
| Cc1nc2ccc3ccccc3c2o1.O=[N+]([O-])c1cc([N+](=O)[O-])c(O)c([N+](=O)[O-])c1 | inactive: -4.68% |
